Assay results: PMC5111430 (ACS chemical biology, 2016)

System: WT4R0N tau
Format: cell-based, human
Settings: HEK293T, transient WT4R0N tau, increasing concentrations, 24 h

CCN1/C(=C/C(C)=C/c2sc3ccccc3[n+]2CC)Sc2ccccc21.[I-] [carbocyanine, 3,3'-Diethyl-9-methylthiacarbocyanine iodide]
effect on tau levels (tau aggregation inhibitor scaffolds): lowered tau levels
